Data as given in US20060246555A1, “Degradation of cyclic nitramines” (published 2006).
Several values for one entry are separate records, joined by “and”; a condition that tells them apart may be missing. Equal entries are not always repeated. Some compounds may have been tested in ways that are not shown here.

The chains behind the UniProt entries cited, without tags or fusion partners.
UniProt P36858, whole entry: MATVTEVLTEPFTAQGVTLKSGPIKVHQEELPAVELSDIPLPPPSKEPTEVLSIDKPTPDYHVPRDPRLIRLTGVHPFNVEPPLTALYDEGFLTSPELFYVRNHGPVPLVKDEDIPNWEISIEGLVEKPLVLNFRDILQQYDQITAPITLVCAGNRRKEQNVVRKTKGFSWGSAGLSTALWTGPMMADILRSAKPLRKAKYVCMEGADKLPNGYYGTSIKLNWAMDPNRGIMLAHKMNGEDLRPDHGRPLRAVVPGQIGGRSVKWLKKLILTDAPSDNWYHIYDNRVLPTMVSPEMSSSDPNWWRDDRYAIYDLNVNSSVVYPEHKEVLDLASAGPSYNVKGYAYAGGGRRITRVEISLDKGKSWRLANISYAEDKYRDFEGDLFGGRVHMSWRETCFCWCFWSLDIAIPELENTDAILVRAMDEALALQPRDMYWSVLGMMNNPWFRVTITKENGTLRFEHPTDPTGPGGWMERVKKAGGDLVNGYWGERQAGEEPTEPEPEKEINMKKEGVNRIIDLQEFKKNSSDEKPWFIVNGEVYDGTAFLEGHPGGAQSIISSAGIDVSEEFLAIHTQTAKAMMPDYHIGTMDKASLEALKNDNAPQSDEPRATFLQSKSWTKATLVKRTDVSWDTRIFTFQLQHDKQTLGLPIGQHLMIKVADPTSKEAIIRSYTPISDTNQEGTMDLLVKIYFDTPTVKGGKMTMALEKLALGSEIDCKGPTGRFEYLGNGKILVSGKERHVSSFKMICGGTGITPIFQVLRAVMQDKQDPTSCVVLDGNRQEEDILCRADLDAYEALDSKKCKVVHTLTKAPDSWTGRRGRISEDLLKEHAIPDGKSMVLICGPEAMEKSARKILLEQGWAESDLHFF

Experiments:
[1] = Alkaline hydrolysis of cyclic nitramines in aqueous solution; details: for Normalized molar yield of 4-NDAB / Normalized molar yield of HCHO / Normalized molar yield of N2O / Normalized molar yield of NH4^+ / Normalized molar yield of NO2^−: pH 10, 30° C., moles of product per mole of reactant consumed; for C mass balance found in 4-NDAB (HNNO2CH2NHCHO, V) / C mass balance found in HCHO / C mass balance found in HCOOH / N mass balance found in 4-NDAB (HNNO2CH2NHCHO, V) / N mass balance found in N2O / N mass balance found in NH3 measured as NH4^+ / N mass balance found in NO2^−: pH 10, % of reacted nitramine; for HCOO^− detected / NH4^+ / NH3 detected: pH 10, hydrolyzed product of formamide
[2] = tested on: Diaphorase (EC 1.8.1.4) from Clostridium kluyveri; assay: RDX biotransformation assay with diaphorase
[3] = biological target: Aspergillus niger NAD(P)H: Nitrate oxidoreductase (EC 1.6.6.2) (Aspergillus niger, UniProt P36858); assay: Nitrate reductase catalyzed RDX transformation
[4] = Photolysis of RDX in aqueous solution at 350 nm
[5] = cited from earlier work
[6] = tested on: Rhodococcus sp. strain DN22; assay: Aerobic degradation of RDX with Rhodococcus sp. strain DN22
[7] = RDX transformation by diaphorase
[8] = RDX transformation, 150 minutes
[9] = RDX after 16 h of photolysis at 350 nm

Compound: O=NN1CN([N+](=O)[O-])CN([N+](=O)[O-])C1
- C mass balance, % Recovered ([1]; pH 10): 87.8%
- N mass balance, total of observed products ([1]; pH 10): 60.45%
- rate of hydrolysis ([1]; pH 10): 0.0283 h⁻¹
- Normalized molar yield of 4-NDAB [1]: 0.842 ± 0.032
- Normalized molar yield of HCHO [1]: 0.800 ± 0.027
- Normalized molar yield of N2O [1]: 0.008 ± 0.001
- Normalized molar yield of NH4^+ [1]: 0.141 ± 0.035
- Normalized molar yield of NO2^− [1]: 0.935 ± 0.005
- C mass balance found in 4-NDAB (HNNO2CH2NHCHO, V) [1]: 56.1%
- C mass balance found in HCHO [1]: 26.6%
- C mass balance found in HCOOH [1]: 5.05%
- N mass balance found in 4-NDAB (HNNO2CH2NHCHO, V) [1]: 42.1%
- N mass balance found in N2O [1]: 0.14%
- N mass balance found in NH3 measured as NH4^+ [1]: 2.35%
- N mass balance found in NO2^− [1]: 15.6%
- HCOO^− detected [1]: 0.35 µmol
- NH4^+ / NH3 detected [1]: 0.33 µmol

Compound: O=[N+]([O-])N1CN([N+](=O)[O-])CN([N+](=O)[O-])C1
- C mass balance, % Recovered ([1]; pH 10): 97%
- nitrogen thought to be still in nitramide ([1]; pH 10): 2.5%
- rate of hydrolysis ([1]; pH 10): 0.00721 h⁻¹
- Normalized molar yield of 4-NDAB [1]: 0.951 ± 0.005
- Normalized molar yield of HCHO [1]: 0.939 ± 0.037
- Normalized molar yield of N2O [1]: 0.770 ± 0.130
- Normalized molar yield of NH4^+ [1]: 0.075 ± 0.032
- Normalized molar yield of NO2^− [1]: 0.972 ± 0.056
- C mass balance found in 4-NDAB (HNNO2CH2NHCHO, V) [1]: 63.4%
- C mass balance found in HCHO [1]: 31.3%
- C mass balance found in HCOOH [1]: 2.3%
- N mass balance found in 4-NDAB (HNNO2CH2NHCHO, V) [1]: 47.6%
- N mass balance found in N2O [1]: 25.6%
- N mass balance found in NH3 measured as NH4^+ [1]: 1.3%
- N mass balance found in NO2^− [1]: 16.2%
- nitrogen calculated as being in the form of aqueous N2O ([1]; pH 10, Henry's Law): 0.3%
- disappearance of RDX ([1]; pH 10, first three hours): 0.14 µmol
- HCOO^− detected [1]: 0.18 µmol
- NH4^+ / NH3 detected [1]: 0.20 µmol
- extent to which the reaction had proceeded ([1]; t=316 h, pH 10): ca. 94%
- NADH consumed to biotransform 1.0 μmole of RDX [2]: 1.4 µmol
- RDX transformation activity equivalent to 100% ([2]; FIG. 10, effect of oxygen experiment): 47 μmoles RDX transformed h^−1mg^−1 protein
- RDX transformation activity equivalent to 100% ([2]; FIG. 11 and 12, FMN experiments, native enzyme): 41 μmoles RDX transformed h^−1mg^−1 protein
- Total % mass recovery, carbon [2, 7]: 91% and 92%
- Total % mass recovery, nitrogen [2, 7]: 92% and 91%
- Concentration of Reactants/metabolites ([2]; RDX transformation, pH 7.0, 27° C., anaerobic, NADH): 78 µmol and 78.0 µmol
- % Carbon recovery ([2]; of total carbon mass in the transformed RDX (78 μmole)): 100.0%
- % Nitrogen recovery ([2]; of total nitrogen mass in the transformed RDX (78 μmole)): 100.0%
- Total % mass recovery, carbon [3, 8]: 96.13% and 96.14%
- Total % mass recovery, nitrogen [3, 8]: 82.10%
- Concentration of Reactants/metabolites ([3]; RDX transformation, after 150 minutes of reaction, pH 7.0, 30° C., anaerobic, NADPH): 86 µmol
- % Carbon recovery ([3]; of total carbon mass in the transformed RDX (86 μmole)): 100%
- % Nitrogen recovery ([3]; of total nitrogen mass in the transformed RDX (86 μmole)): 100%
- % mass balance, carbon [4, 9]: 93% and 93.1%
- % mass balance, nitrogen [4, 9]: 73% and 72.8%
- disappearance of RDX ([4]; after 16 h of photolysis): 0.46 µmol
- maximum water solubility [5]: ca. 50 ppm
- C mass balance of RDX biodegradation [6]: 94%
- N mass balance of RDX biodegradation [6]: 90%
- RDX converted to dead end product 4-nitro-2,4-diaza-butanal (V) ([6]; aerobic): 64%

Compound: 2,4,6,8,10,12-hexanitro-2,4,6,8,10,12-hexaazaisowurtzitane
- rate of hydrolysis ([1]; pH 10): 0.0109 h⁻¹
- Normalized molar yield of 4-NDAB [1]: not formed
- Normalized molar yield of HCHO [1]: not formed
- Normalized molar yield of N2O [1]: 0.910 ± 0.100
- Normalized molar yield of NH4^+ [1]: 0.793 ± 0.049
- Normalized molar yield of NO2^− [1]: 2 and 1.91 ± 0.09
- maximum water solubility [5]: 3.6 ppm

Compound: O=[N+]([O-])N1CN([N+](=O)[O-])CN([N+](=O)[O-])CN([N+](=O)[O-])C1
- C mass balance, % Recovered ([1]; pH 10): 90%
- N mass balance, total of observed products ([1]; pH 10): 86%
- Normalized molar yield of 4-NDAB [1]: 0.859 ± 0.016
- Normalized molar yield of HCHO [1]: 1.82 ± 0.04
- Normalized molar yield of N2O [1]: 1.48 ± 0.06
- Normalized molar yield of NO2^− [1]: 1 and 1.15 ± 0.03
- extent of reaction ([1]; pH 10, 21 days): ca. 5%
- C mass balance found in 4-NDAB (HNNO2CH2NHCHO, V) [1]: 43.8%
- C mass balance found in HCHO [1]: 46.2%
- N mass balance found in 4-NDAB (HNNO2CH2NHCHO, V) [1]: 32.8%
- N mass balance found in N2O [1]: 38.5%
- N mass balance found in NO2^− [1]: 14.7%
- maximum water solubility [5]: 5 ppm
